Reference: patent US20060142593A1, “Platinum compounds” (Sonus Pharmaceuticals, Inc., priority 2002, published 2006)

- solubility in acetone (acetone): soluble
- solubility in methanol (methanol): soluble
Substance: cisplatin tocopherol succinate
